Measured values published in article PMC2941613 (2010).
Where two headings read alike, the source gives them in different places.

Amino acid sequences for entries named in this document (tags omitted). Residues count along the entry.
UniProt P28843, 37-760 limits assumed: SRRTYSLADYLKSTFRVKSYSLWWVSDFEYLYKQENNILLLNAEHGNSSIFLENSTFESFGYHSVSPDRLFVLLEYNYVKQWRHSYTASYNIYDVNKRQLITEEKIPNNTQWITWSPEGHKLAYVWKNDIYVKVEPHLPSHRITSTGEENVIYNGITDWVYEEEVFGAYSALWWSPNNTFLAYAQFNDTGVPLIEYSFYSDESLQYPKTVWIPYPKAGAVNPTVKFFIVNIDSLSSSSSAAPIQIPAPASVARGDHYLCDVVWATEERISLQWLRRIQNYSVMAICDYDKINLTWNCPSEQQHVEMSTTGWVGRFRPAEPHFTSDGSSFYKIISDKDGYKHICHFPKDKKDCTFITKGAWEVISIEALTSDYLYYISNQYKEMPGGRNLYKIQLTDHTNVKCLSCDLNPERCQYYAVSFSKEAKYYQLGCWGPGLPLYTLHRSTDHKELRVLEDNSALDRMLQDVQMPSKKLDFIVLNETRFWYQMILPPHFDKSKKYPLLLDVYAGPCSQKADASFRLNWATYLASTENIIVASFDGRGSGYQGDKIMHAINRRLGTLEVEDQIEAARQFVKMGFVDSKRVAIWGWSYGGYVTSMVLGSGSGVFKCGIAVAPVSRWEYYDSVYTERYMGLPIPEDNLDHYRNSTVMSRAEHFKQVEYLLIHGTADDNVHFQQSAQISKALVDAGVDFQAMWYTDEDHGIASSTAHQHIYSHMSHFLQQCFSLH

Key:
DPP-IV activity [1] = biological target: T1, DPP-IV activity (Mus musculus, UniProt P28843); test: in vivo; settings: po
DPP-IV activity [2] = biological target: T1, DPP-IV activity; settings: 10 mg/kg p.o., ob/ob mice
[3] = read-out: DPP-IV inhibition at 60 min
[4] = read-out: DPP-IV inhibition at 8 h

N#Cc1ccc(NCCNCC(=O)N2CCC[C@H]2C#N)nc1
inhibition at 10 mg/kg (DPP-IV activity [1]; [3]): ≤ 80%
inhibition at 10 mg/kg (DPP-IV activity [1]; read-out: DPP-IV inhibition at 2 h): 50%
DPP-IV activity at 4 h (DPP-IV activity [2]): steady recovery of enzyme activity

N[C@@H](CC(=O)N1CCn2c(nnc2C(F)(F)F)C1)Cc1cc(F)c(F)cc1F [sitagliptin]
inhibition at 10 mg/kg (DPP-IV activity [1]; [3]): 90%
inhibition at 10 mg/kg (DPP-IV activity [1]; [4]): > 70%

N#C[C@@H]1CCCN1C(=O)CNC12CC3CC(CC(O)(C3)C1)C2 [vildagliptin]
inhibition at 10 mg/kg (DPP-IV activity [1]; [4]): > 70%
